## Binding of CDR-mutated scFvs to a peptide of the spike HR2 region

From the AlphaSeq antibody data of Engelhart et al. 2022 (doi:10.1038/s41597-022-01779-4), copy in the FLAb collection.

Antigen: PDVDLGDISGINAS, a 14-residue peptide of the SARS-CoV-2 spike HR2 region.

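The parent was found by panning a naive human phage display library on the peptide. In library AAYL51, one, two or three CDR residues were substituted; doubles and triples were drawn at random. The assay is AlphaSeq: two haploid yeast populations carry antibody and antigen on their surface. Pairs that bind mate more often; barcode pairs of the diploids are counted by sequencing. Read counts were normalised to the haploid input and turned into Kd by a linear fit to BCL2-family pairs of known affinity, for each replicate. The assay was run in three technical replicates.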

Parent: Ab-91, a human scFv built as VL, a 15-residue (Gly4Ser)3 linker, VH. Only the CDRs of the heavy chain vary.
VL: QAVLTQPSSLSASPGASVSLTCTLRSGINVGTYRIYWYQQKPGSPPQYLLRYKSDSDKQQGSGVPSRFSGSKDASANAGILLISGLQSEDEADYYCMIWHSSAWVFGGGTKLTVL
VH: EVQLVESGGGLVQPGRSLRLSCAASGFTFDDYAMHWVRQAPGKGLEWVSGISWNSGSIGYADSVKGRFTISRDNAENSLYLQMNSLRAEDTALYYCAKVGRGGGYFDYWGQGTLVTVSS

Each variant is given by its three heavy chain CDRs, as the data file delimits them; those of the parent are GFTFDDYAMH, GISWNSGSIGYADSVK, VGRGGGYFDY.
Values are log10 of the apparent Kd in nM; lower means stronger binding.
A mean of the replicates is given; it leaves out those without a signal.
Where no diploid with the target was found in that replicate, the entry reads "nd": below detection, most likely a poor binder, though not proof of it.

| CDR-H1 | CDR-H2 | CDR-H3 | replicates, log10 nM | log10 Kd (nM), mean | control signals |
|---|---|---|---|---|---|
| QFTFDIYAMH | GISWNSGSIGYADSVK | VGRGGQYFDY | nd 5.14 nd | 5.14 | 1/9 (5.61) |
| GDTFDDYAMH | GISNRSGSIGYADSVK | VGRGGGYFDY | 4.19 nd nd | 4.19 | 0/9 |
| GFTFDDPAMH | GISWNSGVIGYADSVK | VGHGGGYFDY | nd nd 4.88 | 4.88 | 5/9 (4.16) |
| VFTFDDYAMH | GISWNSGSIGYADSVK | VGRGGGINDY | nd nd nd | nd | 0/9 |
| GFTFDDYAMH | GISWNSGDIGYADSVK | NGRGPGYFDY | 2.70 2.86 2.50 | 2.69 | 5/9 (4.74) |
| GFTFDDYAMH | GISWNSGSIGYAGSVK | VGMGKGYFDY | 3.81 nd nd | 3.81 | 3/9 (4.82) |
| GCTFDDYAMH | GWSWNSASIGYADSVK | VGRGGGYFDY | 5.86 4.75 4.28 | 4.96 | 1/9 (5.01) |
| GFTFDDCAMH | GISWNCGYIGYADSVK | VGRGGGYFDY | 4.95 5.31 nd | 5.13 | 1/9 (4.59) |
| GFTFDDYAMH | IISWNSGSIGYADSRK | VGREGGYFDY | nd nd nd | nd | 0/9 |
| GFTYDDYAMH | GISWNSGSIGYADSVK | VGRGCGYNDY | 4.92 5.96 nd | 5.44 | 3/9 (4.21) |
| GFTFNDYAMH | GISWNSGSIGNADSVS | VGRGGGYFDY | nd nd nd | nd | 0/9 |
| GETFDDYAMH | GISWNTGSIGYADSVK | VGREGGYFDY | 4.48 5.28 nd | 4.88 | 1/9 (4.55) |
| GFTFDDYAMH | GISWNSGSIWYADSVK | VGRGSGYFDY | 6.55 nd 4.25 | 5.40 | 6/9 (5.37) |
| GFTFDDYAMH | DISWNSGSIGYADSVK | VGRGYGYFDY | nd nd nd | nd | 2/9 (3.76) |
| GFTFDDYAMH | GMSWNSGSIRYADSVK | VGRGGGYFDQ | nd nd nd | nd | 0/9 |
| GFTFDDKLMH | GISWNSGSIGYADSVK | VMRGGGYFDY | 5.05 nd nd | 5.05 | 2/9 (3.55) |
| GFTFDDYAMH | GSSWNSGSHGYADGVK | VGRGGGYFDY | 4.52 4.90 5.49 | 4.97 | 6/9 (5.04) |
| GFTFDDYAMI | GISWNSGSIGYADRVK | VGRGGGYFDM | nd nd nd | nd | 0/9 |
| GFTFDDYFMH | GIDWNSGSIGYADSVK | VGRGGGYFFY | nd nd nd | nd | 1/9 (3.47) |
| GFFFDAYAMH | GISWNSGSIGYADSVK | VGRGGGYFDW | 4.20 nd nd | 4.20 | 1/9 (4.14) |
| GFTFDDYAMH | GISWNSVSIGPADSVK | VGRGGGYFDY | nd 6.40 nd | 6.40 | 3/9 (4.67) |
| GFDFDDYAMH | GISWNSCSIGYADSVW | VGRGGGYFDY | 2.17 2.27 1.73 | 2.06 | 2/9 (4.28) |
| GFTFDDYLMH | GISWHSGSIGYADSAK | VGRGGGYFDY | 4.41 nd nd | 4.41 | 3/9 (4.33) |
| GFTFDDYAMH | GISWNKGSIGQADSVK | VGRRGGYFDY | nd nd nd | nd | 0/9 |
| MFTFDDYAMH | GISWNSGSIGYAWSVK | VGRGGGYKDY | nd nd nd | nd | 1/9 (3.89) |
| GFTFDDYEMH | GISWNSGSKGYADSMK | VGRGGGYFDY | nd nd nd | nd | 0/9 |
| GFTFDDYACH | GISWNSGSIGYADSVK | SGRGGGYFDY | nd nd 4.35 | 4.35 | 2/9 (4.12) |
| GFTFDPYAMH | GISWNSGSIGYADSVK | VGRFGGYADY | 0.69 0.53 -0.30 | 0.31 | 2/9 (3.61) |
| GFTSDDYAMH | GIVWNSGSIGYADSVK | VGQGGGYFDY | 5.28 4.95 5.73 | 5.32 | 8/9 (5.08) |
| GFTFDDYAMH | GKSWNSGSPGYADSVK | VGRGGGYFNY | nd nd nd | nd | 0/9 |
| GFTFDMYAMH | GISWNLGSAGYADSVK | VGRGGGYFDY | 4.84 nd nd | 4.84 | 2/9 (4.87) |
| GFTFSDYAMH | GISWNSGSDGYAWSVK | VGRGGGYFDY | 1.48 1.65 1.18 | 1.44 | 2/9 (4.25) |
| GFTFDDYAMC | GISWNSGSIGYADSVK | VGRKGGYFDY | nd 4.34 nd | 4.34 | 0/9 |
| GFTFDDYADH | GESWTSGSIGYADSVK | VGRGGGYFDY | nd nd nd | nd | 0/9 |
| GFTFDDYAMG | GISWNSGSIGYADSVK | KGGGGGYFDY | nd nd nd | nd | 0/9 |
| GFTFDDYAMH | GISWWSGSIGYADSVK | AGRGGAYFDY | 4.89 4.62 nd | 4.76 | 2/9 (4.94) |
| GFTFDDYAMN | GNSWNSGSIGYADSVK | VGRGGGVFDY | 4.93 6.33 4.46 | 5.24 | 9/9 (5.37) |
| WFTFDDYACH | GISWNSGSIGYAWSVK | VGRGGGYFDY | nd 4.54 nd | 4.54 | 3/9 (4.07) |
| GFTADDYAMI | CISWNSGSIGYADSVK | VGRGGGYFDY | nd 4.79 nd | 4.79 | 0/9 |
| GITFDDYAMH | GNSWNSGSIGYADSVK | VGRGGGYFLY | nd nd nd | nd | 0/9 |
| GCTFDDYAMH | GISWASGSIGMADSVK | VGRGGGYFDY | 4.88 nd nd | 4.88 | 0/9 |
| GFTFDDYAMH | GISWNSGHIGWADSVK | VGRGGGLFDY | nd nd nd | nd | 1/9 (3.35) |
| GFTFDDYAMH | GISWNSGSIGRAESVK | CGRGGGYFDY | 5.06 nd nd | 5.06 | 2/9 (3.98) |
| GYTFDHYAMH | GISWNSHSIGYADSVK | VGRGGGYFDY | 1.35 1.52 0.88 | 1.25 | 1/9 (4.52) |
| GFTFDDYAMH | GISWNTGSIGYADRVK | VGRTGGYFDY | 4.98 nd nd | 4.98 | 0/9 |
| GFTFDDYAMH | GISWNSESIGYADDVK | VGRGGYYFDY | nd nd nd | nd | 3/9 (4.29) |
| GTTFDDYAMH | GISWNSISVGYADSVK | VGRGGGYFDY | nd nd nd | nd | 0/9 |
| GFTRDDYAMH | GISWNSGSIGYADEVK | VGRGHGYFDY | nd nd nd | nd | 0/9 |
| VFTFDDYAMH | GISWNSGSEGYADSVK | VGDGGGYFDY | nd nd nd | nd | 0/9 |
| GFTFDDYAMH | GASWNSHPIGYADSVK | VGRGGGYFDY | 4.65 4.18 nd | 4.42 | 5/9 (4.39) |

Three control strains display no target. For library AAYL51, 21% of the pairings with them gave a signal, with a median of 4.54 and one signal in twenty below 3.26, so weak values seen in few replicates may be background. For each scFv, signals with the empty controls are counted beside the result, with their mean in brackets.